This is a selection; strong and weak results do not stand in their true shares. Calls of active or inactive are those of the source. Cut-off read from the data, not from the text of the source: active = inhibition above about 50%; inactive = the rest.
Target: Dual specificity protein phosphatase 3 (Homo sapiens) (UniProt P51452)
Experiment: inhibition of human DUSP3 activity – biochemical, absorbance, uHTS, primary screen (AID 1654)
Conditions: recombinant VHR phosphatase, pNPP absorbance; at 13.3 µM; hits give high values

By UniProt entry, the sequences of proteins in these tests, tags left out.
UniProt P51452, whole entry: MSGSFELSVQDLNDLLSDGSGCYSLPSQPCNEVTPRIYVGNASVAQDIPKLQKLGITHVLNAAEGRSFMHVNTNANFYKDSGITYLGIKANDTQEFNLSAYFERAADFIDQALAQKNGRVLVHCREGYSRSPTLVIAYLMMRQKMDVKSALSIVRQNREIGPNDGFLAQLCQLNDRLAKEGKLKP

Structure (SMILES) | inhibition
COc1ccc2nc(NP(=O)(c3ccccc3)c3ccccc3)sc2c1 | inactive: 14.5%
O=P1(Nc2nc3ccc(Cl)cc3s2)COc2ccccc2O1 (configuration not stated) | inactive: -11.9%

Reference: PubChem BioAssay AID1654 (Sanford-Burnham Center for Chemical Genomics, 2009)
